Test results reported in PMC12618257.
Values belong to the substance of their own block, whether it stands above or below them.

Key:
Assay in all cases: mass photometry; 30 nM SPIN90-C or mutant in PBS, TwoMP instrument (Refeyn), room temperature; dimer and monomer peaks
[1] = biological target: Human SPIN90-C (residues 274–722) (human) (UniProt Q9NZQ3)
[2] = biological target: Human SPIN90-C glycine substitution mutant (G397–G405) (human) (UniProt Q9NZQ3)
[3] = biological target: Human SPIN90-C deletion mutant (Δ394–399) (human) (UniProt Q9NZQ3)

stoichiometry N [1]: 2
Substance: Human SPIN90-C (residues 274–722) (from UniProt Q9NZQ3 274-722) (domain or fragment)

stoichiometry N [2]: 2
Substance: Human SPIN90-C glycine substitution mutant (G397–G405) (from UniProt Q9NZQ3 274-722) (domain or fragment)

stoichiometry N [3]: 2
Substance: Human SPIN90-C deletion mutant (Δ394–399) (from UniProt Q9NZQ3 274-722) (domain or fragment)
